According to BigSolDB 2.1:

CCCc1nn(C)c2c(=O)[nH]c(-c3cc(S(=O)(=O)N4CCN(C)CC4)ccc3OCC)nc12.O=C(O)CC(O)(CC(=O)O)C(=O)O
solubility (mole fraction)
Settings | 293.2 K | 298.2 K | 303.2 K | 308.2 K | 313.2 K
in ethanol | 0.000116 | 0.000119 | 0.000159 | 0.000179 | 0.000251
in water | 0.00015 | 0.00016 | 0.00027 | 0.000303 | 0.000384
